Measured values as given in patent publication US8163732B2, “Tricyclic heteroaryl compounds useful as inhibitors of Janus kinase” (Vertex Pharmaceuticals Incorporated, priority 2005, dated 2012).

Protein sequences, listed by entry. Tags and fused reporters are not part of them.
UniProt O60674, whole entry: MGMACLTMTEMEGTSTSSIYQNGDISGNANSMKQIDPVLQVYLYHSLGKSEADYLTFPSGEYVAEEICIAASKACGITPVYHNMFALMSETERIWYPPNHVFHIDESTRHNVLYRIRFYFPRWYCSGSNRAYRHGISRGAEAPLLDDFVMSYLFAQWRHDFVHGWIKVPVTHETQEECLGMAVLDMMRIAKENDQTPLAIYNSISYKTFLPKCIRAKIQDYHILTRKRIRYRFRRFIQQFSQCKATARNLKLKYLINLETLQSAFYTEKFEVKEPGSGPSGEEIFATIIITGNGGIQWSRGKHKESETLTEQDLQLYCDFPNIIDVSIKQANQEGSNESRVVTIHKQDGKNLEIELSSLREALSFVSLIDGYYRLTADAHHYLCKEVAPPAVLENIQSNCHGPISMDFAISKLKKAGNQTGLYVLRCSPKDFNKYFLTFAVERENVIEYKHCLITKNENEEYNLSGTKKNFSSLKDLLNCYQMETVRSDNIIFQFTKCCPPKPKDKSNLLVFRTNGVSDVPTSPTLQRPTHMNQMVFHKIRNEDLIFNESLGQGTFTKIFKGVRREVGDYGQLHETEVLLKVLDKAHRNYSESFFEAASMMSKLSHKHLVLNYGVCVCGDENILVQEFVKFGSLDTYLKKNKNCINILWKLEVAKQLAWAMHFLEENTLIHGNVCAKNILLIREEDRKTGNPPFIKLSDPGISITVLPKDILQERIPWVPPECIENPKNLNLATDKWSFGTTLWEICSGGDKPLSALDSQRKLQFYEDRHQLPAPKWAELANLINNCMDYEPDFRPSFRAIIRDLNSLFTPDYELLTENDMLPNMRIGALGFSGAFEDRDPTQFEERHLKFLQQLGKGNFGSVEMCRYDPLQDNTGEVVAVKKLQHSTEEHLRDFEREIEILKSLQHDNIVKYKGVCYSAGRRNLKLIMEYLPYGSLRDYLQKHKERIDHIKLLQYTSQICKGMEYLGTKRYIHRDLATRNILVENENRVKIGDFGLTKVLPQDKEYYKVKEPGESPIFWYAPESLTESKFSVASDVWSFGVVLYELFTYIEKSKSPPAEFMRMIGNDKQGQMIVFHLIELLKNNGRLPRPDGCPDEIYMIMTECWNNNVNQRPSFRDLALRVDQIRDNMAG
UniProt P52333, whole entry: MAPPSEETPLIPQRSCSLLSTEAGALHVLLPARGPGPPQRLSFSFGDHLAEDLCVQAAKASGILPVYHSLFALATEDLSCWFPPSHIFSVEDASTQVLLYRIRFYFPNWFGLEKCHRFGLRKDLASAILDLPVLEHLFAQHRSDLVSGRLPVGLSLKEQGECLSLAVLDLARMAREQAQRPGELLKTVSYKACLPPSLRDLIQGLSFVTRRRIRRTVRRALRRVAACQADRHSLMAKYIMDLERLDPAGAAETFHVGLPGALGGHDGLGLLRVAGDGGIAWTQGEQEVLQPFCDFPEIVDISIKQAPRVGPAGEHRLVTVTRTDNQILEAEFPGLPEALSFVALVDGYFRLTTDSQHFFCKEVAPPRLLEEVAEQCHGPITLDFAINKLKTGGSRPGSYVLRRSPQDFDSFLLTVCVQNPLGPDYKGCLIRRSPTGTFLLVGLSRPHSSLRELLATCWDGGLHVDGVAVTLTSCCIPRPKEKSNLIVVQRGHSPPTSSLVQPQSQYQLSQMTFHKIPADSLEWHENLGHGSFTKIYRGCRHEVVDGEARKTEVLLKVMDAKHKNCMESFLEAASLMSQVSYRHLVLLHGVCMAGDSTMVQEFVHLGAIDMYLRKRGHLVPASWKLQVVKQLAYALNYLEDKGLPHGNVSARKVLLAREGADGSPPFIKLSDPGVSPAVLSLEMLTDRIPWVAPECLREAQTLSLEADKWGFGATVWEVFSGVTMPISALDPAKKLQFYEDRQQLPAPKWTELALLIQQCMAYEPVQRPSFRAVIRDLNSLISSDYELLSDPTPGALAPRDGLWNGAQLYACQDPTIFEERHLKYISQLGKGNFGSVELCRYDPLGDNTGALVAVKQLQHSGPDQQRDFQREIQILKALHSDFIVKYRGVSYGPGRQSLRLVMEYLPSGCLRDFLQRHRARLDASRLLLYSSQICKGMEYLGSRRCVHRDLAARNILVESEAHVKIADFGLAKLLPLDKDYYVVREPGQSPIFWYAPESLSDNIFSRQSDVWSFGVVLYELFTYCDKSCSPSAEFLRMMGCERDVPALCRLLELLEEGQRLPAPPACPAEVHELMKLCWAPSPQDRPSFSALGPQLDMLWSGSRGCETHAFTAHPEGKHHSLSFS

Key:
JAK-2 = JAK-2 (Homo sapiens, UniProt O60674); test: JAK-2 inhibition assay; type: biochemical; conditions: read-out: JAK-2 Ki; Ki (app); 15 μM poly(Glu)4Tyr, 12 μM ATP, 25° C.
JAK-3 = JAK-3 (Homo sapiens, UniProt P52333); test: JAK-3 inhibition assay; conditions: read-out: JAK-3 Ki; Ki (app); 1 μM poly(Glu)4Tyr, 5 μM ATP, 1 nM JAK-3, 25° C.

Row | pKi (JAK-2) | pKi (JAK-3) | SMILES
1 | 5.60 to 6.60 | 5.60 to 6.60 | CCOC(=O)C1(c2ccc(OC)cc2)Nc2ccccc2-c2ncnc3[nH]cc1c23 (stereo not drawn)
2 | > 6.60 | > 6.60 | Oc1ccc([C@@H]2Nc3ccccc3-c3ccnc4[nH]cc2c34)c(Cl)c1
3 | > 6.60 | > 6.60 | Oc1ccc(C2=Nc3ccccc3-c3ncnc4[nH]cc2c34)cc1

pKi: −log10 of the molar value.
